Structures are written as SMILES.

Protein sequences, listed by entry. Tags and fused reporters are not part of them. Residues count along the entry.
UniProt P25774, 115-331: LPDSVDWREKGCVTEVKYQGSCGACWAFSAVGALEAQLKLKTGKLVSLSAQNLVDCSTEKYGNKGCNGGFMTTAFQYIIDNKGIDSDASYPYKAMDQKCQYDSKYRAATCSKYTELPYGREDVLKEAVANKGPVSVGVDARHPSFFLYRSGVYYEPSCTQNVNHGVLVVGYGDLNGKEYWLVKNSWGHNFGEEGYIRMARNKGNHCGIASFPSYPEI

The target of this test is Recombinant human cathepsin S (CatS) (Homo sapiens, UniProt P25774). Kind of test: biochemical.

Broadly, the IC50 is the midpoint of a concentration-inhibition curve. On to `CS(=O)(=O)N1CCc2c(c(-c3ccc(C(F)(F)F)c(SCCN4CCC(F)CC4)c3)nn2CC(O)CN2CCC[C@H](C(=O)O)C2)C1` (stereo partly drawn) [Example 611, (3S)-1-(3-{3-[3-{[2-(4-Fluoropiperidin-1-yl)ethyl]sulfanyl}-4-(trifluoromethyl)phenyl]-5-(methylsulfonyl)-4,5,6,7-tetrahydro-1H-pyrazolo[4,3-c]pyridin-1-yl}-2-hydroxypropyl)piperidine-3-carboxylic acid], for which the IC50 worked out at 340 nM.
As to `CS(=O)(=O)N1CCc2c(c(-c3ccc(C(F)(F)F)c(SCCN4CCC(F)CC4)c3)nn2CC(O)CN2CCCCC2)C1` (stereo not shown) [Example 188, 1-{3-[3-{[2-(4-Fluoropiperidin-1-yl)ethyl]sulfanyl}-4-(trifluoromethyl)phenyl]-5-(methylsulfonyl)-4,5,6,7-tetrahydro-1H-pyrazolo[4,3-c]pyridin-1-yl}-3-piperidin-1-ylpropan-2-ol], the IC50 is 150 nM.
For `CS(=O)(=O)N1CCc2c(c(-c3ccc(C(F)(F)F)c(SCCN4CCC(F)CC4)c3)nn2CC(O)CN2CCC(O)CC2)C1` (stereo not shown) [Example 488, 1-(3-{3-[3-{[2-(4-Fluoropiperidin-1-yl)ethyl]sulfanyl}-4-(trifluoromethyl)phenyl]-5-(methylsulfonyl)-4,5,6,7-tetrahydro-1H-pyrazolo[4,3-c]pyridin-1-yl}-2-hydroxypropyl)piperidin-4-ol], the IC50 worked out at 320 nM.
The value for `CC1C(=O)NCCN1CCSc1cc(-c2nn(CCCN3CCCCC3)c3c2CN(S(C)(=O)=O)CC3)ccc1C(F)(F)F` (stereo not shown) [Example 374, 3-Methyl-4-[2-({5-[5-(methylsulfonyl)-1-(3-piperidin-1-ylpropyl)-4,5,6,7-tetrahydro-1H-pyrazolo[4,3-c]pyridin-3-yl]-2-(trifluoromethyl)phenyl}sulfanyl)ethyl]piperazin-2-one] was 830 nM.
Turning to `CS(=O)(=O)N1CCc2c(c(-c3ccc(C(F)(F)F)c(SCCN4CCC(O)CC4)c3)nn2CC(O)CN2CCC(O)(c3ccccn3)CC2)C1` (stereo not shown) [Example 782, 1-(2-Hydroxy-3-{3-[3-{[2-(4-hydroxypiperidin-1-yl)ethyl]sulfanyl}-4-(trifluoromethyl)phenyl]-5-(methylsulfonyl)-4,5,6,7-tetrahydro-1H-pyrazolo[4,3-c]pyridin-1-yl}propyl)-4-pyridin-2-ylpiperidin-4-ol], the IC50 amounted to 140 nM.
In the case of `CS(=O)(=O)N1CCc2c(c(-c3ccc(C(F)(F)F)c(SCCN4CCC(F)CC4)c3)nn2C[C@@H](O)CN2CCCCCC2)C1` [Example 472, (2S)-1-Azepan-1-yl-3-{3-[3-{[2-(4-fluoropiperidin-1-yl)ethyl]sulfanyl}-4-(trifluoromethyl)phenyl]-5-(methylsulfonyl)-4,5,6,7-tetrahydro-1H-pyrazolo[4,3-c]pyridin-1-yl}propan-2-ol], the IC50 amounted to 210 nM.
The value for `COC(=O)C(=O)N1CCc2c(c(-c3ccc(C(F)(F)F)c(SCCN4CCCCC4)c3)nn2CC(O)CN2CCC(N3CCCC3=O)CC2)C1` (stereo not shown) [Example 244, Methyl(1-{2-hydroxy-3-[4-(2-oxopyrrolidin-1-yl)piperidin-1-yl]propyl}-3-{3-[(2-piperidin-1-ylethyl)sulfanyl]-4-(trifluoromethyl)phenyl}-1,4,6,7-tetrahydro-5H-pyrazolo[4,3-c]pyridin-5-yl)(oxo)acetate] was 20 nM; that for `CCN1CCc2c(c(-c3ccc(C(F)(F)F)c(SCC(=O)N4CCCC4)c3)nn2CC(O)CN2CCN(c3ccccc3O)CC2)C1` (stereo not shown) [Example 544, 2-{4-[3-(5-Ethyl-3-{3-[(2-oxo-2-pyrrolidin-1-ylethyl)sulfanyl]-4-(trifluoromethyl)phenyl}-4,5,6,7-tetrahydro-1H-pyrazolo[4,3-c]pyridin-1-yl)-2-hydroxypropyl]piperazin-1-yl}phenol] was 1390 nM.
As for `COC1CCN(CC(O)Cn2nc(-c3ccc(C(F)(F)F)c(SCCN4CCOCC4)c3)c3c2CCN(S(C)(=O)=O)C3)CC1` (stereo not shown) [Example 469, 1-[4-(Methyloxy)piperidin-1-yl]-3-[5-(methylsulfonyl)-3-{3-[(2-morpholin-4-ylethyl)sulfanyl]-4-(trifluoromethyl)phenyl}-4,5,6,7-tetrahydro-1H-pyrazolo[4,3-c]pyridin-1-yl]propan-2-ol], the concentration for half-maximal inhibition (IC50) was 480 nM.
The value for `CC1CCCN(CCSc2cc(-c3nn(CCCN4CCC(N5CCCC5=O)CC4)c4c3CN(S(C)(=O)=O)CC4)ccc2C(F)(F)F)C1` (stereo not shown) [Example 8, 1-{1-[3-(5-Methanesulfonyl-3-{3-[2-(3-methyl-piperidin-1-yl)-ethylsulfanyl]-4-trifluoromethyl-phenyl}-4,5,6,7-tetrahydro-pyrazolo[4,3-c]pyridin-1-yl)-propyl]-piperidin-4-yl}-pyrrolidin-2-one] was 70 nM; that for `O=C(CO)N1CCc2c(c(-c3ccc(C(F)(F)F)c(SCCN4CCCC(O)C4)c3)nn2CC(O)CN2CCCCC2)C1` (stereo not shown) [Example 336, 1-[2-({5-[5-(Hydroxyacetyl)-1-(2-hydroxy-3-piperidin-1-ylpropyl)-4,5,6,7-tetrahydro-1H-pyrazolo[4,3-c]pyridin-3-yl]-2-(trifluoromethyl)phenyl}sulfanyl)ethyl]piperidin-3-ol] was 3880 nM.
Take `CC(=O)NC1CCN(C[C@H](O)Cn2nc(-c3ccc(C(F)(F)F)c(SCCN4CCC(C)CC4)c3)c3c2CCN(S(C)(=O)=O)C3)CC1` [Example 645, N-{1-[(2S)-2-Hydroxy-3-{3-[3-{[2-(4-methylpiperidin-1-yl)ethyl]sulfanyl}-4-(trifluoromethyl)phenyl]-5-(methylsulfonyl)-4,5,6,7-tetrahydro-1H-pyrazolo[4,3-c]pyridin-1-yl}propyl]piperidin-4-yl}acetamide]: the IC50 is 45 nM.
On to `COCC(=O)N1CCc2c(c(-c3ccc(C(F)(F)F)c(SCCN4CCC(F)CC4)c3)nn2C[C@@H](O)CN2CCCCC2)C1` [Example 373, (2S)-1-{3-[3-{[2-(4-Fluoropiperidin-1-yl)ethyl]sulfanyl}-4-(trifluoromethyl)phenyl]-5-[(methyloxy)acetyl]-4,5,6,7-tetrahydro-1H-pyrazolo[4,3-c]pyridin-1-yl}-3-piperidin-1-ylpropan-2-ol], for which the concentration for half-maximal inhibition (IC50) came out at 470 nM.
For `CS(=O)(=O)N1CCc2c(c(-c3ccc(C(F)(F)F)c(SCCN4CCC(F)CC4)c3)nn2CC(O)CN2CCC(CCO)CC2)C1` (stereo not shown) [Example 193, 1-{3-[3-{[2-(4-Fluoropiperidin-1-yl)ethyl]sulfanyl}-4-(trifluoromethyl)phenyl]-5-(methylsulfonyl)-4,5,6,7-tetrahydro-1H-pyrazolo[4,3-c]pyridin-1-yl}-3-[4-(2-hydroxyethyl)piperidin-1-yl]propan-2-ol] the value was 130 nM; for `CSCC(=O)N1CCc2c(c(-c3ccc(C(F)(F)F)c(SCCN4CCC(F)CC4)c3)nn2C[C@@H](O)CN2CCCCC2)C1` [Example 441, (2S)-1-{3-[3-{[2-(4-Fluoropiperidin-1-yl)ethyl]sulfanyl}-4-(trifluoromethyl)phenyl]-5-[(methylsulfanyl)acetyl]-4,5,6,7-tetrahydro-1H-pyrazolo[4,3-c]pyridin-1-yl}-3-piperidin-1-ylpropan-2-ol], 310 nM; for `Oc1cccc(N2CCN(C[C@H](O)Cn3nc(-c4ccc(C(F)(F)F)c(SCCN5CCC(F)CC5)c4)c4c3CCNC4)CC2)c1` [Example 479, 3-{4-[(2S)-3-{3-[3-{[2-(4-Fluoropiperidin-1-yl)ethyl]sulfanyl}-4-(trifluoromethyl)phenyl]-4,5,6,7-tetrahydro-1H-pyrazolo[4,3-c]pyridin-1-yl}-2-hydroxypropyl]piperazin-1-yl}phenol], 480 nM.
The value for `CN(C)CC1CCCN(CCCn2nc(-c3ccc(C(F)(F)F)c(SCCN4CCCCC4)c3)c3c2CCN(S(C)(=O)=O)C3)C1` (stereo not shown) [Example 535, N,N-Dimethyl-1-(1-{3-[5-(methylsulfonyl)-3-{3-[(2-piperidin-1-ylethyl)sulfanyl]-4-(trifluoromethyl)phenyl}-4,5,6,7-tetrahydro-1H-pyrazolo[4,3-c]pyridin-1-yl]propyl}piperidin-3-yl)methanamine] was 940 nM; that for `CC1(O)CCN(C[C@H](O)Cn2nc(-c3ccc(C(F)(F)F)c(SCCN4CCCC(F)C4)c3)c3c2CCN(S(C)(=O)=O)C3)CC1` (stereo partly drawn) [Example 568, 1-[(2S)-3-{3-[3-{[2-(3-Fluoropiperidin-1-yl)ethyl]sulfanyl}-4-(trifluoromethyl)phenyl]-5-(methylsulfonyl)-4,5,6,7-tetrahydro-1H-pyrazolo[4,3-c]pyridin-1-yl}-2-hydroxypropyl]-4-methylpiperidin-4-ol] was 550 nM; that for `CS(=O)(=O)N1CCc2c(c(-c3ccc(C(F)(F)F)c(SCCN4CC[C@H](F)C4)c3)nn2C[C@@H](O)CN2CCCCCC2)C1` [Example 404, (2S)-1-Azepan-1-yl-3-{3-[3-({2-[(3S)-3-fluoropyrrolidin-1-yl]ethyl}sulfanyl)-4-(trifluoromethyl)phenyl]-5-(methylsulfonyl)-4,5,6,7-tetrahydro-1H-pyrazolo[4,3-c]pyridin-1-yl}propan-2-ol] was 1100 nM.
Consider `CC1CCN(CCSc2cc(-c3nn(C[C@@H](O)CN4CCCCC4)c4c3CN(S(C)(=O)=O)CC4)ccc2C(F)(F)F)CC1` [Example 377, (2S)-1-{3-[3-{[2-(4-Methylpiperidin-1-yl)ethyl]sulfanyl}-4-(trifluoromethyl)phenyl]-5-(methylsulfonyl)-4,5,6,7-tetrahydro-1H-pyrazolo[4,3-c]pyridin-1-yl}-3-piperidin-1-ylpropan-2-ol], for which the 50% inhibitory concentration (IC50) came out at 290 nM.
`CC1(O)CCN(CC(O)Cn2nc(-c3ccc(C(F)(F)F)c(SCCN4CCCC4)c3)c3c2CCN(S(C)(=O)=O)C3)CC1` (stereo not shown) [Example 386, 1-{2-Hydroxy-3-[5-(methylsulfonyl)-3-{3-[(2-pyrrolidin-1-ylethyl)sulfanyl]-4-(trifluoromethyl)phenyl}-4,5,6,7-tetrahydro-1H-pyrazolo[4,3-c]pyridin-1-yl]propyl}-4-methylpiperidin-4-ol]: the IC50 is 1190 nM.
For `CC1(O)CCN(C[C@H](O)Cn2nc(-c3ccc(C(F)(F)F)c(SCCN4CCCC(F)(F)C4)c3)c3c2CCN(S(C)(=O)=O)C3)CC1` [Example 631, 1-[(2S)-3-{3-[3-{[2-(3,3-Difluoropiperidin-1-yl)ethyl]sulfanyl}-4-(trifluoromethyl)phenyl]-5-(methylsulfonyl)-4,5,6,7-tetrahydro-1H-pyrazolo[4,3-c]pyridin-1-yl}-2-hydroxypropyl]-4-methylpiperidin-4-ol] the value was 290 nM.

Source of the values: patent US20090099157A1, “TETRAHYDRO-PYRAZOLO-PYRIDINE THIOETHER MODULATORS OF CATHEPSIN S” (priority 2007, published 2009).
